{"source": "patent US12098118B2", "about": "(Regents of the University of Minnesota, priority 2018, dated 2024)", "origin": "cited, not measured here", "tested_on": "mice", "details": "Wade et al. 2008; cited from earlier work", "data": [{"smiles": "N=C(N)NCCCCN", "note": "[agmatine, 1-(4-aminobutyl)guanidine, reference compound]", "values": [{"measurement": "oral fentanyl self-administration", "result": "diminishes"}]}]}
